{"source": "patent US9725457B2", "about": "“6-amido derivatives of 4, 5-a epoxymorphinans for the treatment of pain” (Sloan-Kettering Institute for Cancer Research, priority 2010, dated 2017)", "test_system": "mice", "assay": "Tolerance studies and effects of chronic administration (cross tolerance, precipitated withdrawal)", "protocol": "Tail-flick latencies were determined before and 30 minutes after each injection. See Gistrak et al. (1989) op. cit. […] Similarly, a group of mice (n=10) were made tolerant to test compound by twice daily injections to 1 mg/kg, s.c. for 10 days. […] Animals were evaluated for signs of diarrhea and jumping. See Gistrak et al. (1989) op. cit.", "data": [{"smiles": "CN1CC[C@]23c4c5ccc(O)c4O[C@H]2[C@@H](O)C=C[C@H]3[C@H]1C5", "note": "[morphine, reference compound]", "values": [{"measurement": "physical dependence (withdrawal on challenge with an antagonist after chronic administration)", "result": "prompt and dramatic signs of withdrawal"}]}]}
